Ab-14 heavy chain CDR variants: yeast mating affinities

The measurements come from Li et al. 2023 (doi:10.1038/s41467-023-39022-2) through the FLAb antibody collection.

Target peptide (SARS-CoV-2 spike, HR2 region): PDVDLGDISGINAS

Parent scFv Ab-14: VH joined to VL by a (GGGGS)3 linker. Changes lie in the heavy chain CDRs alone.
VH: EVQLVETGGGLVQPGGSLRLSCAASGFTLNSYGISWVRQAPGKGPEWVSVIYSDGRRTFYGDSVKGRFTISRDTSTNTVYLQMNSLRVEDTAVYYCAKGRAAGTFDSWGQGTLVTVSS
VL: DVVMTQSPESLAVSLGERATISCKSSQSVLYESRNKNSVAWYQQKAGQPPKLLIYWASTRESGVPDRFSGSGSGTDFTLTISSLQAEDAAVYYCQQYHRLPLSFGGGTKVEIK

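The parent was found by panning a naive human phage display library on the peptide. These sequences belong to a second round, designed from the earlier measurements on random variants of the parent. Their group label is 14H_GP_Gen (GP: Gaussian process model; Gen: genetic algorithm; a sequence that several methods proposed may carry one label only). The assay is AlphaSeq: two haploid yeast populations carry antibody and antigen on their surface. Mating (16 h, 30 °C) was followed by selection of diploids and sequencing of their barcodes. The ratio of observed to expected reads was calibrated, replicate by replicate, on BCL2-family standards whose Kd was known from biolayer interferometry. There are six technical replicates.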

Each variant is given by its three heavy chain CDRs, as the data file delimits them; those of the parent are GFTLNSYGIS, VIYSDGRRTFYGDSVK, GRAAGTFDS. The read-out is the apparent dissociation constant on a log10 scale (nM): the lower, the stronger. Where no diploid with the target was found in that replicate, the entry reads "n.d.": below detection, most likely a poor binder, though not proof of it.

CDR-H1	CDR-H2	CDR-H3	replicates, log10 nM	empty controls
GFDLNSYGIS	VIYSDGKRTFYADSVK	GRNAGTFDS	-0.34 / -0.59 / 0.17 / -0.90 / -0.26 / -0.92	0 of 18
GFNLNSYGIS	VIYSDGRRTFYGDSVK	GEAAGTFDN	1.94 / 1.88 / 1.54 / 2.25 / 1.65 / 2.52	0 of 18
HFSLNEYGIS	VIYSDGRRTFYGDSVK	GRNAGTFDS	1.01 / 0.70 / 1.56 / 1.37 / 0.59 / 1.03	0 of 18
YFQLNEYGIS	VIYSDGRRTFYGDSVK	GRTAGTFDS	n.d. / n.d. / n.d. / n.d. / n.d. / 1.89	0 of 18
GFELNSYGIS	VIYSDGRRTFYADSVK	GQTAGTFDT	n.d. / 0.20 / -0.75 / n.d. / 0.01 / -0.01	0 of 18
GFQLNEYGIS	VIYSDGRRTFYGDQVK	GRTAGTFDS	0.92 / 0.11 / 0.76 / 0.23 / 1.16 / -0.13	0 of 18
GFQLNSYGIS	VIYSDGRRTAYGDSVK	GRQAGTFDS	1.18 / 0.79 / 1.01 / 1.07 / 0.60 / 0.86	0 of 18
GFWLNEYGIS	VIYSDGRRTFYGDSVK	GKTAGTFDS	n.d. / n.d. / n.d. / n.d. / n.d. / n.d.	0 of 18
GFTLESYGIS	VIYSDGKRTFYGDSVK	GKAAGTFDS	n.d. / 1.03 / 1.01 / 0.43 / 0.87 / 0.44	1 of 18 (1.37)
KFNLNSYGIS	VIYSDGRRTFYADSVK	GRNAGTFDS	2.47 / 1.71 / n.d. / n.d. / 2.03 / 3.19	0 of 18
GFELNEYGIS	VIYSDGRRTFYGDSVK	GHAAGTFDT	0.83 / 0.29 / 0.10 / 0.03 / 0.31 / 0.60	0 of 18
GFQLNEYGIS	VIYSDGRRTFYGDQVK	GEAAGTFDS	n.d. / n.d. / n.d. / 0.31 / n.d. / 0.64	0 of 18
GFELNEYGIS	VIYSDGRRTFYQDSVK	GKAAGTFDS	0.68 / 0.59 / 0.63 / 0.20 / 0.31 / 0.94	0 of 18
GFDLNSYGIS	VIYSDGRRTFYGDRVK	GKTAGTFDS	0.86 / 0.56 / 0.83 / 0.51 / 0.73 / 0.90	0 of 18
GFDLNSYGIS	VIYSDGRRTCYGDSVK	GRTAGTFDS	1.15 / 0.69 / 0.82 / 0.82 / 0.64 / 0.61	2 of 18 (2.37)
GFELNSYGIS	VIYSDGRRTFYGDSVK	GRTAGTFDL	0.82 / 0.80 / 0.53 / 0.57 / 1.08 / 0.97	1 of 18 (2.43)
GFDLNEYGIS	VIYSDGMRTFYGDSVK	GRTAGTFDS	-0.22 / -0.30 / -0.26 / -0.09 / -0.27 / -0.14	0 of 18
GFSLKSYGIS	VIYADGRRTFYGDSVK	GKAAGTFDS	0.51 / 0.53 / 0.27 / 0.24 / 0.60 / 0.51	1 of 18 (2.83)
GFDLNSYGIS	VIYSDGRRTFYADQVK	GQTAGTFDS	0.63 / 0.03 / 0.78 / 0.67 / 3.12 / 1.91	0 of 18
KFELNSYGIS	VIYSDGRRTFYSDSVK	GRTAGTFDS	0.47 / 1.20 / 0.97 / 0.97 / 0.63 / 0.72	0 of 18
GFSLNSYGIS	VIYSDGRRTFYGDNVK	GITAGTFDS	0.69 / 0.21 / -0.06 / -0.20 / -0.01 / 0.43	0 of 18
KFSLNEYGIS	VIYSDGRRTFYGDSVK	GQTAGTFDS	1.08 / 1.11 / 1.07 / 1.07 / 1.04 / 0.70	0 of 18
WFDLNSYGIS	VIYSDGRRTAYGDSVK	GRTAGTFDS	1.91 / 1.32 / 0.29 / 1.22 / 2.93 / 1.03	0 of 18
GFELNEYGIS	VIYSDGRRTFYSDSVK	GEAAGTFDS	n.d. / n.d. / n.d. / n.d. / n.d. / n.d.	0 of 18
GFELNSYGIS	VIYSDGRRTFYADDVK	GKAAGTFDS	0.50 / 0.21 / 0.65 / 0.14 / 0.25 / 0.24	0 of 18
GFQLNEYGIS	VIYSDGRRTFYQDSVK	GRAAGTFDS	0.85 / 0.62 / 0.56 / 0.67 / 0.46 / 0.56	0 of 18
GFQLNEYGIS	VIYSDGRRTFYGDSVK	GWAAGTFDS	1.05 / n.d. / n.d. / n.d. / 0.88 / n.d.	0 of 18
GFDLNEYGIS	VIYSDGRRTFYGDSVK	GRNAGTFDS	-0.69 / -0.41 / -0.60 / -0.11 / -1.00 / -0.78	0 of 18
GFTLESYGIS	VIYADGRRTFYGDSVK	GRAAGTFDM	1.14 / 0.55 / 0.70 / 1.01 / 0.54 / 0.80	0 of 18
YFSLNEYGIS	VIYSDGRRTFYGDSVK	GRTAGTFDK	n.d. / n.d. / n.d. / n.d. / n.d. / n.d.	0 of 18
GFSLNSYGIS	VIYSDGRRTFYQDNVK	GNAAGTFDS	0.40 / 0.66 / -0.05 / 0.26 / 0.14 / -0.32	2 of 18 (1.79)

For reference, 2 entries of the list once more:

CDR-H1,CDR-H2,CDR-H3,"replicates, log10 nM",empty controls
YFSLNEYGIS,VIYSDGRRTFYGDSVK,GRTAGTFDK,n.d. / n.d. / n.d. / n.d. / n.d. / n.d.,0 of 18
GFWLNEYGIS,VIYSDGRRTFYGDSVK,GKTAGTFDS,n.d. / n.d. / n.d. / n.d. / n.d. / n.d.,0 of 18

Three control strains display no target. For all heavy chain designs, 1% of the pairings with them gave a signal, with a median of 2.08 and one signal in twenty below 0.84, so weak values seen in few replicates may be background. Also given: how often the same scFv was detected with the empty control strains, with their mean in brackets. Values of this round are not directly comparable with the first-round values of the same sequences. Of ten entries with the parent sequence, four were seen in most replicates (averages 0.34 to 2.37), three in one and three in none, so single entries are noisy. In the paper, a design with two or fewer of six values counts as a poor binder.